Tested on: primary colon cancer samples from patients with high M3 receptor expression grown as organoids
Settings: carbachol added on top of the antagonist zamifenacin; organoids without EGF and FGF

C[N+](C)(C)CCOC(N)=O [carbachol]
Reversal of the inhibition of organoid growth by the antagonist: able to reverse the inhibition

From US20240066018A1 (priority 2022, published 2024)
